This assay addresses human autotaxin (ATX) (Homo sapiens (Human), UniProt Q13822). Briefly: Human Autotaxin Assay. The note with it: concentrated conditioned media from Hep3B cells; LPC substrate, choline release. The format is biochemical. The protocol:
ATX activity is assayed in concentrated conditioned media from Hep3B human hepatocellular carcinoma cells by measuring the amount of choline released from the substrate, lysophosphatidylcholine (LPC) as it is cleaved to LPA. Conditioned media is collected from confluent Hep3B cells and concentrated 20-fold using Centriprep-30 filter devices (Millipore). To assay for autotaxin inhibition, 10-20 μL of the concentrated conditioned media is incubated with 2.5 μL of a test compound in DMSO and 72.5-82.5 μL lyso-PLD buffer (100 mM Tris pH 9, 500 mM NaCl, 5 mM MgCl2, 5 mM CaCl2, 0.05% Triton X-100 in the presence or absence of 0.2% fatty-acid-free human serum albumin) for 15 min at 37° C. After the 15 min incubation, 5 uL of 2 mM LPC (14:0; Avanti Polar Lipids Cat#855575C) diluted in lyso-PLD buffer is added for a final concentration of 100 uM and the incubation continues for 1.5-3 hours at 37° C. 100 μL of a color mix containing 4.5 mM 4-aminoantipyrine, 2.7 mM N-ethyl-N-(2-hydroxy-3-sulfopropyl)-m-toluidine, 21 units/ml horseradish peroxidase and 3 units/mL choline oxidase in 50 mM Tris, pH 8, 4.5 mM MgCl2 is added and the incubation continued for 15 minutes at room temperature before reading the absorbance at 555 nm.

Structures are written as SMILES. pIC50: −log10 of the molar value. Some results are limits rather than exact numbers.

The results in this text go back to patent publication US9850203B2, “Autotaxin inhibitor compounds” (PharmAkea, Inc., priority 2013, dated 2017).

By pIC50 is commonly meant the negative decadic logarithm of the IC50, by convention in mol/L. The low end stands for a high IC50, the high end for a low IC50.

On to `Cc1c(Sc2cccc(C(=O)O)c2F)c2ccc(Cl)c(F)c2n1CC(=O)N1CC[C@@](O)(C(F)(F)F)C1` (single isomer, unassigned; enantiomer a) [Compound 2-58], for which the pIC50 was no less than 6.30.
